Source: patent US20250144104A1, “DISCOVERY OF A NEW INHIBITOR FOR THE YTH DOMAIN-CONTAINING M6A RNA READERS” (The Trustees of Boston College, priority 2023, published 2025)

Target: T1, YTH^YTHDC1 (Homo sapiens, UniProt Q96MU7)
T1 construct: YTHDC1 (amino acids 345-509); His-tag (N); made in house; host or cells: E. coli BL21(DE3)
Assay: Competitive RNA electrophoretic mobility shift assay (REMSA), YTHDC1
Format: binding
Conditions: 25 nM FAM-m^6A-RNA, N-7 1-200 μM; read-out: IC50, REMSA against YTH^YTHDC1
Procedure: Competitive REMSA was performed by incubating 20 nM YTH^YTHDF1 or YTH^YTHDC1 with various concentrations of N-7 (1-200 μM) and 25 nM FAM-m^6A-RNA in a buffer containing 10 mM HEPES, 50 mM KCl, 1 mM EDTA, 0.05% Triton-X-100, 5% glycerol and RNase inhibitor, in a final volume of 20 μL. The reaction mixture was incubated at room temperature for 20 minutes, and then loaded onto an 8% polyacrylamide gel containing 0.2% glycerol. Electrophoresis was performed in 0.5×TBE buffer at 90 V and 4° C. for 60 minutes. FAM-m^6A-RNA was detected using the ChemiDoc™ MP imaging system (BIO-RAD) with the fluorescence blotting module.

**Q.** How did the IC50 turn out when O=C1CC2(CCN(c3ncnc4c3ncn4C3CC(CO)(CO)C3)C2)CN1 (stereo not shown) [N-7] was run?
**A.** Its IC50 is 30 ± 2 µM.
